According to US11883419B2, “DNA polymerase gamma inhibitor and uses thereof” (ACIBADEM MEHMET ALI AYDINLAR UNIVERSITESI, priority 2018, dated 2024):

Key:
Lovo = conditions: 20 μM and 50 μM, 48 h
SW48 = conditions: SW48, 20 μM and 50 μM, 48 h
HCT116 = test: cells; conditions: Homo sapiens, HCT-116, 48 h, read-out: Inhibition of cell proliferation

**Q.** With Nc1c(/N=N/c2ccc(-c3ccc(/N=N/c4cc(S(=O)(=O)O)c5ccccc5c4N)cc3)cc2)cc(S(=O)(=O)O)c2ccccc12 [Formula II] as the compound, how does the “Inhibition of cell proliferation” value (Lovo) read?
**A.** did not inhibit

**Q.** And the “Inhibition of cell proliferation” value (SW48)?
**A.** did not inhibit

**Q.** What about the inhibition at 20 µM (HCT116) of the same compound?
**A.** 35%

**Q.** What about the inhibition at 50 µM (HCT116) of the same compound?
**A.** 50%
